GALK inh: blocks human galactokinase activity; P51570; Purified GALK, Kinase-Glo residual ATP luminescence; Potency, µM (highest dose often 57.5 µM), without a hit: at the top dose activity change, negative = inhibition, actives largely listed as inhibitors; actives 0.007% (n = 270,000); AID 1868; also: potency is read from the fitted curve at half-maximal effect; % is scaled to controls: 0 for no effect and ±100 for the full control effect
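ATP-depletion format; final 35 uM ATP, 100 uM D-galactose, 5 nM enzyme; pH 8.0 HEPES/Mg2+ buffer; 60 min RT; luminescence read 10 min after detection reagent.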
PINK1 modulator: PINK1 expression modulation; PINK1 immunofluorescence, high-content cytometry, 24 h; Potency, µM (highest dose often 76.6 µM), without a hit: at the top dose activation (PINK1 increase), usual class: activators; actives 0.2% (n = 410,000); active = well fitted activation curve with a large enough effect; inconclusive = small, poorly fitted or top-dose-only effect; cell line not stated here; also: potency is read from the fitted curve at half-maximal effect; % of control where 0% means no effect; nearly all actives have a fitted effect of over 65% in size
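Compound titrations (5 concentrations, 24 h) on a stable cell line; DMSO and CCCP controls. Endpoint: fixed-cell PINK1 immunofluorescence with mitochondrial, cell and nuclear markers, scanned by microplate cytometer.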
TrxR1 inh: rat TrxR1 inhibition; O89049; recombinant rTrxR1, NADPH fluorescence consumption, selenite substrate; Potency, µM (doses to about 114 µM), without a hit: top-dose activity change, negative = inhibition, hits mostly inhibitors; actives 1% (n = 390,000); also: potency is read from the fitted curve at half-maximal effect; % is scaled to controls: 0 for no effect and ±100 for the full control effect; nearly all actives have a fitted effect of over 65% in size
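Rat TrxR1 (90 nM in the dispensed reagent) was pre-reduced with 400 uM NADPH for 5 min at room temperature, then incubated with compound for 15 min. After 400 uM selenite was added, NADPH fluorescence (Ex 340/Em 450 nm) was followed for 8 min.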
miR-21 FLuc: miR-21 reporter, rising signal; HeLa miR-21 FLuc reporter, luciferase, 48 h; Potency, µM (titrated, usually from 38.3 µM), without a hit: top-dose reporter change, positive = more light; AID 2288; 340,000 tested, under 10 active; active = well fitted rising curve with a large enough effect; inconclusive = small, poorly fitted or top-dose-only effect; inactive = no such curve, though single readings can be large or run the other way;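 further: % of control where 0% means no effect; miR-21 action dims this reporter so a rising signal means less miR-21 action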
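Using DMEM plus 10% FBS, HeLa miR-21-FLuc cells are incubated with test compounds (final up to about 40uM) for 48 hours; firefly luciferase signal is then imaged following reagent-mediated lysis.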
TrxR1 substrate: substrates of rat thioredoxin reductase 1. O89049. purified TrxR1 substrate turnover, NADPH consumption readout. Potency, µM (series often up to 114 µM), for inactives: at the highest dose activity change, negative = substrate turnover. actives 0.01% (n = 390,000). AID 588456; also: potency is read from the fitted curve at half-maximal effect; % is scaled to controls: 0 for no effect and ±100 for the full control effect; nearly all actives have a fitted effect of over 50% in size
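Rat TrxR1, dispensed at 90 nM, was prereduced with 400 uM NADPH (final) for 5 min at ~22 deg C, then incubated with compound 15 min before 400 uM selenite. A first-read NADPH fluorescence drop versus no-compound background flagged substrates.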
Starred values were filed as active, the others as inactive; ? = inconclusive; nt = not tested or not shown; ! = repeats disagree; [ ] = another dose, or the depositor's remark. Sampled rows, rich in hits. Any-hit rate of the full collection: about 1.1%. Unless noted, calls follow the shape of the dose curve; as a rule, active = well fitted curve in the direction sought with a large enough effect; inconclusive = small, poorly fitted or top-dose-only effect, or another doubt; inactive = no such curve, though single readings can be large; an effect the other way counts as inactive or inconclusive.

Results follow in this order: GALK inh | PINK1 modulator | TrxR1 inh | miR-21 FLuc | TrxR1 substrate
1) ClCCN(CCCl)c1ccc(/C=C/c2ccnc3ccccc23)cc1
 : nt | 1.8% | -16.4% | nt | -15.0%
2) N#CC(C#N)=NNc1ccc(-n2ccc(C(F)(F)F)n2)cc1
 : nt | ? | 20µM* | ? | -5.8%
3) O=Cc1ccc(O)c(O)c1
 : -0.1% | 0.4% | -21.9% | -36.8% | -14.0%
4) CN(N=O)c1ccc(O)c(O)c1
 : nt | nt | 0.947µM* | nt | -6.4%[57.1 µM]
5) CCCN1CCCC(c2cccc(O)c2)C1 (stereo not given)
 : nt | nt | -0.2% | nt | nt
6) COc1cc(/C=C/[N+](=O)[O-])ccc1O
 : nt | -0.9% | 3.16µM* | ? | -8.2%
7) CCN(CC)c1ccc(/C=C/[N+](=O)[O-])cc1
 : -0.2% | 8.3% | ? | -0.2% | -7.6%
8) NC(N)=Nc1ccc2[nH]c3c(c2c1)C[C@@]1(O)[C@H]2Cc4ccc(O)c5c4[C@@]1(CCN2CC1CC1)[C@H]3O5
 : nt | 0.0% | 26.7µM* | nt | 20.4%[57.1 µM]
9) C=CCN1CCc2cccc3c2[C@H]1Cc1ccc(O)c(O)c1-3
 : -2.1% | 0.4% | 20µM* | 8.6% | 18.4%[57.1 µM]
10) Cn1c(O)c(/C=C2\C=c3ccccc3=NC2=O)c(=O)n(C)c1=O
 : -1.9% | -0.7% | 35.5µM* | -0.3% | -5.0%

Profiles, quoted from the list:
CCCN1CCCC(c2cccc(O)c2)C1 (stereo not given) as listed: GALK inh = nt; PINK1 modulator = nt; TrxR1 inh = -0.2%; miR-21 FLuc = nt; TrxR1 substrate = nt
Cn1c(O)c(/C=C2\C=c3ccccc3=NC2=O)c(=O)n(C)c1=O as listed: GALK inh = -1.9%; PINK1 modulator = -0.7%; TrxR1 inh = 35.5µM*; miR-21 FLuc = -0.3%; TrxR1 substrate = -5.0%

Additional compounds follow:
Results follow in this order: GALK inh | PINK1 modulator | TrxR1 inh | miR-21 FLuc | TrxR1 substrate
11) CCN(CC)C(=O)Oc1ccc2cc(Br)ccc2c1
 : -0.2% | 4.2% | -6.9% | -63.0% | -10.2%
12) CCCc1nc2ccc(Br)cc2c(=O)n1-c1ccc([N+](=O)[O-])c(C(F)(F)F)c1
 : 0.4% | 14.1µM* | -15.0% | ? | -15.6%
13) O=C1NC(=O)C(=Cc2ccc(N3CCN(C(=O)c4ccccc4)CC3)c([N+](=O)[O-])c2)C(=O)N1
 : 0.2% | -0.2% | 10µM* | -3.2% | -9.4%
14) CN1C(=O)C(=Cc2ccc(N3CCOCC3)c([N+](=O)[O-])c2)C(=O)N(C)C1=O
 : -1.9% | nt | nt | -1.8% | nt
15) C[N+](C)(C)CC1CCCc2ccccc2C1=O (stereo not given)
 : nt | -1.7% | 70.8µM* | nt | -2.9%
16) C[N+](C)(C)CC1CCCC(C[N+](C)(C)C)C1=O (stereo not given)
 : nt | 0.6% | ? | nt | -4.5%
17) Cc1ccccc1-n1c(O)c(C(c2ccncc2)c2c(O)n(-c3ccccc3C)c(=O)[nH]c2=O)c(=O)[nH]c1=O
 : -1.6% | 2.6% | 14.1µM* | -0.2% | 4.5%[57.1 µM]
18) CN(C)[C@@H]1C(=O)C(C(N)=O)=C(O)[C@@]2(O)C(=O)C3=C(O)c4c(O)cccc4[C@@](C)(O)[C@H]3[C@H](O)[C@@H]12
 : -0.4% | 2.7% | 35.5µM*! | 3.4% | 0.9%
19) O=C1NC(=O)N(c2ccccc2F)C(=O)/C1=C/c1ccc(Sc2nc3ccccc3[nH]2)o1
 : 1.6% | 1.4% | ? | 0.5% | 1.6%
20) O=C1NC(=O)N(c2ccccc2)C(=O)/C1=C/c1ccc(Sc2ccccc2)o1
 : 3.3% | -3.0%[38.3 µM] | 14.1µM* | -1.8% | -3.8%

Next records.
Results follow in this order: GALK inh | PINK1 modulator | TrxR1 inh | miR-21 FLuc | TrxR1 substrate
21) O=C1NC(=O)N(c2cccc(Cl)c2)C(=O)/C1=C\c1ccc(Sc2nc3ccccc3[nH]2)o1
 : 0.5% | -0.9% | 8.91µM* | -2.1% | 5.5%
22) CCCCC1(CCCC)C(=O)NC(=Nc2cccc(C)c2)NC1=O
 : -2.1% | 15.8µM* | 39.8%[57.1 µM] | 27.7% | 10.3%[57.1 µM]
23) NCC(=O)c1ccccc1
 : nt | -1.1% | 16.2% | nt | 2.7%
24) O=C(CCl)NN=C(c1ccccc1)c1ccccc1
 : 15.2% | 19.4% | 14.1µM* | -2.0% | 6.8%[57.1 µM]
25) O=[N+]([O-])c1ccc2nc(N3CCNCC3)ccc2c1
 : nt | -0.4% | 79.4µM*! | nt | 4.8%[57.1 µM]
26) O=C(Nc1ccccc1)c1cc([N+](=O)[O-])ccc1N1CCNCC1
 : 2.3% | 1.2% | ? | -7.8% | -5.8%
27) CSc1cccc(CNC(=O)C2CCC(=O)N(Cc3cccc(C(F)(F)F)c3)C2)c1 (stereo not given)
 : 7.5% | -1.0% | 21.1% | -41.5% | -1.9%
28) Cc1cc(C=C2C(=O)N(C)C(=S)N(C)C2=O)c(C)n1-c1ccncc1
 : -2.3% | 2.8% | ? | -1.6% | 2.5%
29) Cc1ccnc(-n2c(C)cc(C=C3C(=O)N(C)C(=S)N(C)C3=O)c2C)c1
 : 2.4% | -0.9% | 17.8µM* | -1.9% | -8.2%
30) CCc1cccc(NC(=O)c2ccc(NC(=O)N3CCSc4ncccc43)cc2)c1
 : nt | 1.4% | 22.8% | -32.1% | 8.0%

The results go on:
Results follow in this order: GALK inh | PINK1 modulator | TrxR1 inh | miR-21 FLuc | TrxR1 substrate
31) COc1ccccc1N1C(=O)NC(=O)/C(=C/c2ccc([N+](=O)[O-])s2)C1=O
 : nt | 1.5% | ? | -0.6% | -9.0%
32) O=C1NC(=O)N(Cc2ccc(F)cc2)C(=O)/C1=C\c1ccc([N+](=O)[O-])s1
 : nt | 8.4% | 39.8µM* | -0.5% | -10.8%
33) COc1ccc(CN2C(=O)NC(=O)/C(=C/c3ccc([N+](=O)[O-])s3)C2=O)cc1
 : 0.2% | 12.8% | 39.8µM* | 3.1% | -5.4%
34) CCN(CC)c1nc2ccccc2nc1C(=O)Nc1cccc(C(C)=O)c1
 : nt | 7.1% | -1.0%[57.1 µM] | ? | -0.8%[57.1 µM]
35) Cc1ccc(-n2c(-c3nn(C)c(C)c3Cl)n[nH]c2=S)cc1
 : -0.3% | -1.8% | 39.8µM* | -8.8% | -10.7%
36) Cc1ccc(-c2n[nH]c(=S)n2-c2ccccc2)cc1
 : -1.9% | -1.3% | ? | 4.0% | -5.8%[57.1 µM]
37) CC(=O)NCC(N)C(=O)c1ccc(Cl)c(Cl)c1 (stereo not given)
 : nt | 1.4% | 11.1% | nt | 9.5%
38) CC[C@H](C)/C=C(C)/C=C/C1=CC2=C(Cl)C(=O)[C@](C)(OC(C)=O)C(=O)C2=CO1
 : nt | 3.2% | 50.1µM* | nt | -2.2%
39) CN1CCN(c2csc3ccc(F)cc3c2=O)CC1
 : nt | 0.6% | 2.6%[57.1 µM] | -6.3% | -1.4%[57.1 µM]
40) Cc1cc(C=C(C#N)C#N)ccc1N1CCCC1
 : -1.8% | 1.7% | -4.5%[57.1 µM] | -1.8% | -9.6%

The listing continues:
Results follow in this order: GALK inh | PINK1 modulator | TrxR1 inh | miR-21 FLuc | TrxR1 substrate
41) N#CC(C#N)=Cc1ccc(N2CCOCC2)cc1
 : -1.0% | 2.3% | 70.8µM* | -2.3% | -8.7%
42) CC[C@@H](CO)Nc1nc(NCc2ccccc2)c2ncn(C(C)C)c2n1
 : nt | nt | 5.3%[57.1 µM] | nt | 0.7%[57.1 µM]
43) O=C(c1ccco1)N1CCN(C(=O)c2ccc(COc3ccc(Cl)cc3Cl)o2)CC1
 : nt | 0.7% | 7.08µM* | nt | -3.0%[57.1 µM]
44) O=C(O)COc1ccc(Cl)cc1Cl
 : nt | 0.2% | 8.9% | nt | 0.7%
45) O=C(NCc1ccccc1)c1cccc(Nc2nc3ccccc3n3nnnc23)c1
 : nt | 4.6% | 134.3% | -1.5% | 125.8%
46) Cc1c(Cl)cccc1NC(=O)c1oc2ccc(S(=O)(=O)N3CCC4(CC3)OCCO4)cc2c1C
 : nt | 6.3% | 7.1%[57.1 µM] | ? | 1.4%[57.1 µM]

Ordered by count of non-hydrogen atoms (smallest number first): some entries from above
Results follow in this order: GALK inh | PINK1 modulator | TrxR1 inh | miR-21 FLuc | TrxR1 substrate
42) CC[C@@H](CO)Nc1nc(NCc2ccccc2)c2ncn(C(C)C)c2n1
 : nt | nt | 5.3%[57.1 µM] | nt | 0.7%[57.1 µM]
45) O=C(NCc1ccccc1)c1cccc(Nc2nc3ccccc3n3nnnc23)c1
 : nt | 4.6% | 134.3% | -1.5% | 125.8%
46) Cc1c(Cl)cccc1NC(=O)c1oc2ccc(S(=O)(=O)N3CCC4(CC3)OCCO4)cc2c1C
 : nt | 6.3% | 7.1%[57.1 µM] | ? | 1.4%[57.1 µM]

Screens: PubChem BioAssay, National Center for Advancing Translational Sciences (NCATS)
